Protein sequences, listed by entry. Tags and fused reporters are not part of them. Residues count along the entry.
UniProt P03951, 388-625 limits assumed: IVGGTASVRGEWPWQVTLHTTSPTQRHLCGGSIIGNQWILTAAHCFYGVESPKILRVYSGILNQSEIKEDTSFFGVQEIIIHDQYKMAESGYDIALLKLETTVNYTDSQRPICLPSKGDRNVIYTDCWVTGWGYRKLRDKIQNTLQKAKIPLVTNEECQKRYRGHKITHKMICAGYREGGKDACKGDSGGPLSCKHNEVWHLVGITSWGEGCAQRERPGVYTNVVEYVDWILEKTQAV
UniProt P03951, 19-387 partner limits assumed: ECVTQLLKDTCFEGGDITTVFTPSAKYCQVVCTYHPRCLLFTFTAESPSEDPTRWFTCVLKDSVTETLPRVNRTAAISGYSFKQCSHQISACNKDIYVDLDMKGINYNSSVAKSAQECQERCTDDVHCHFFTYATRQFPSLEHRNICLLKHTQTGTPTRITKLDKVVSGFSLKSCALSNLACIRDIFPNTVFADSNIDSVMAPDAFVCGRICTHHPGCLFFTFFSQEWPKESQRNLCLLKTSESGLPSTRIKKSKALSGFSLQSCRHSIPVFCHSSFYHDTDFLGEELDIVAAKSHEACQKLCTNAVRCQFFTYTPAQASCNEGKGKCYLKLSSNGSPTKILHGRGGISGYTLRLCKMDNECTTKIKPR

In patent US10487086B2:

Molecular target: purified human Factor XIa (Homo sapiens (Human), UniProt P03951)
Assay: Factor XIa enzyme inhibition assay (chromogenic substrate S-2366)
Settings: read-out: Factor XIa Ki, substrate S-2366, pH 7.4

Ki: 6.6 nM
SMILES: COC(=O)Nc1ccc2c(c1)NC(=O)C(C)CCC[C@H](NC(=O)c1c(F)cc3c(cnn3C)c1F)c1nc-2c(Cl)[nH]1 (stereo partly shown)
